## Binding of CDR-mutated scFvs to a peptide of the spike HR2 region

Values reported by Li et al. 2023, doi:10.1038/s41467-023-39022-2 (FLAb copy).

Target peptide (SARS-CoV-2 spike, HR2 region): PDVDLGDISGINAS

The variants keep the light chain, the linker and the frameworks of Ab-14 (scFv order VH, a (GGGGS)3 linker, VL).
VH: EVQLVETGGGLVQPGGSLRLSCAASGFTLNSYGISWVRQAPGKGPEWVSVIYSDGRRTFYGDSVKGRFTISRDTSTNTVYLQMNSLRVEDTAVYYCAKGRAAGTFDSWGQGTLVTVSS
VL: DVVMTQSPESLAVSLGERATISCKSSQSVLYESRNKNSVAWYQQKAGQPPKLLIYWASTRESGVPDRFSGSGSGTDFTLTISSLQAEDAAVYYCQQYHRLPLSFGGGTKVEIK

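Designed CDR sequences, proposed from the first random library and measured here. Group labels follow the data file (Ctrl: baseline library sampled from a position-specific scoring matrix, with some repeated check sequences; Rand: our label for a block that the file lists under HC and that is probably the random mutants of the ten best first-round binders; En: ensemble of fine-tuned language models; HC: hill climbing; Gen: genetic algorithm; Gibbs: Gibbs sampling; a sequence that several methods proposed may carry one label only). Affinity was read by AlphaSeq, a pooled yeast mating assay with surface-displayed partners. Binding brings cells together so that they mate, and sequencing counts the barcode pairs among the diploids. A regression on co-assayed BCL2-family reference pairs converts the normalised counts of each replicate to an apparent Kd. There are six technical replicates.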

Variants are written as CDR1, CDR2 and CDR3 of the heavy chain (limits as in the source). Parent: GFTLNSYGIS, VIYSDGRRTFYGDSVK, GRAAGTFDS. This list holds designs with more than six substitutions. Numbers give log10(Kd / nM), so 0 is 1 nM and 3 is 1 µM. Smaller is tighter. Replicates are averaged; those with no signal do not enter the mean. "ND" means that the variant was in the library but no mating with the target was seen in that replicate; the authors take this as a sign of poor binding, and no number exists. Entries are sorted by rising average, undetected variants last. Three control strains display no target. For all heavy chain designs, 1% of the pairings with them gave a signal, with a median of 2.08 and one signal in twenty below 0.84, so weak values seen in few replicates may be background. In the paper, a design with two or fewer of six values counts as a poor binder. Values of this round are not directly comparable with the first-round values of the same sequences. Of ten entries with the parent sequence, four were seen in most replicates (averages 0.34 to 2.37), three in one and three in none, so single entries are noisy.

The variant GFDLDEYGIS | VIYADGMRTAYADSVK | GQNAGTFDI [En_Gen] gave -1.68, -1.77, -1.56, -1.52, -1.29, -1.72 (mean -1.59). The variant GFDLNEYGIS | VIYADGMRTYYADSVK | GEVAGTFDM [En_Gen] showed -0.84, -1.12, -1.30, -1.52, -0.57, -0.42 (mean -0.96). With GFDLDEYGIS | VIYADGRRTAYSDSVK | GNVAGTFDL [En_Gen] the result was -0.65, -0.87, -0.47, -0.89, -0.69, -0.82 (mean -0.73). The variant GFDLNEYGIS | VIYADGSRTFYSDSVK | GNQAGTFDA [En_HC] showed -0.46, -1.01, -0.86, -0.97, -0.46, -0.60 (mean -0.73). With GFDLDEYGIS | VIYADGVRTAYADDVK | GEVAGTFDV [En_Gen] the result was -0.27, -0.58, -0.80, -0.95, -0.91, -0.83 (mean -0.72). For GFDLNEYGIS | VIYADGMRTAYADSVK | GNVAGTFDS [En_Gen], the assay gave -0.25, -0.59, -0.72, -0.63, -0.92, -0.71 (mean -0.64).

The variant GFDLEEYGIS | VIYADGRRTFYTDSVK | GEVAGTFDV [En_HC] showed -0.41, -0.43, -0.45, -0.71, -0.59, -0.68 (mean -0.55). The variant GFDLDEYGIS | VIYADGRRTAYADDVK | GENAGTFDI [En_Gen] gave -0.27, -0.51, -0.28, -0.82, -0.56, -0.43 (mean -0.48). With GFQLDEYGIS | VIYADGRRTFYADSVK | GEVAGTFDS [En_HC] the result was -0.48, -0.53, -0.59, -0.34, -0.60, -0.27 (mean -0.47). With GFDLDEYGIS | VIYADGRRSAYHDSVK | GQLGGVSFV [En_Gibbs] the result was -0.48, -0.40, -0.49, -0.19, -0.53, -0.70 (mean -0.47). With GFNLDEYGIS | VIYADGMRTAYADSVK | GENAGTFDV [En_Gen] the result was -0.35, -0.42, -0.35, -0.45, -0.54, -0.50 (mean -0.43). The variant GFDLNEYGIS | VIYADGKRTAYADSVK | GTVAGTFDI [En_Gen] showed -0.23, -0.34, -0.46, -0.55, -0.51, -0.24 (mean -0.39).

The variant GFDLDEYGIS | VIYADGMRTAYADSVK | GANAGTFDV [En_Gen] showed -0.10, -0.40, -0.26, -0.55, -0.61, -0.36 (mean -0.38). The variant GFDLDEYGIS | VIYADGRRTFYADSVK | GNNAGTFDV [En_Gen] showed 0.03, -0.15, -0.44, -0.54, -0.55, -0.54 (mean -0.37). The variant GFDLNEYGIS | VIYADGRRTFYADSVK | GEHAGTFDI [En_HC] gave -0.44, -0.41, -0.53, -0.14, -0.38, -0.27 (mean -0.36). With GFDLNEYGIS | VIYADGMRTAYTDSVK | GNQAGTFDQ [En_Gen] the result was ND, 0.62, -0.54, 0.23, -1.38, -0.71 (mean -0.35). With GFGLSEYGIS | VIYADGMRTSYDDSVK | GALAGTFDE [En_Gibbs] the result was -0.14, -0.32, -0.47, -0.42, -0.31, -0.24 (mean -0.32). The variant GFDLNEYGIS | VIYADGKRTFYSDSVK | GQVAGTFDV [En_HC] showed -0.23, -0.15, -0.26, -0.49, -0.22, -0.20 (mean -0.26).

The variant GFDLEDYGIS | VIYADGMRTAYSDSVK | GNVAGTFDT [En_Gen] showed -0.50, -0.11, -0.33, -0.01, -0.39, -0.20 (mean -0.26). For GFDLDEYGIS | VIYADGRRTAYSDSVK | GNNAGTFDL [En_Gen], the assay gave 0.00, -0.21, -0.23, -0.40, -0.55, -0.01 (mean -0.23). For GFDLNEYGIS | VIYADGVRTAYADSVK | GSNAGTFDT [En_Gen], the assay gave -0.08, -0.18, -0.33, -0.28, -0.51, 0.14 (mean -0.21). With GFDLNEYGIS | VIYADGFRTFYTDSVK | GEFAGTFDV [En_HC] the result was -0.32, 0.09, -0.22, -0.27, -0.70, 0.27 (mean -0.19). With GFDLNEYGIS | VIYADGVRTAYTDSVK | GENAGTFDI [En_Gen] the result was 0.63, -0.33, -0.29, -0.58, -0.73, 0.26 (mean -0.17). For GFDLNEYGIS | VIYADGRRTFYADSVK | GNHAGTFNV [En_HC], the assay gave 0.17, 0.01, -0.29, 0.34, -0.59, -0.18 (mean -0.09).

With GFDLDEYGIS | VIYADGMRTAYADDVK | GNQAGTFDL [En_Gen] the result was 0.03, 0.14, -0.16, 0.04, -0.27, 0.14 (mean -0.01). For GFDLNEYGIS | VIYADGMRTFYTDSVK | GENAGTFDL [En_Gen], the assay gave 0.12, 0.00, -0.23, -0.14, 0.19, -0.01 (mean -0.01). The variant GFDLNEYGIS | VIYADGSRTFYADSVK | GEQAGSFDQ [En_HC] showed ND, 0.40, -0.18, -0.25, 0.52, 0.76 (mean 0.25). For GFDLEDYGIS | VIYADGRRTFYADSVK | GNVAGTFDV [En_HC], the assay gave 0.37, 0.34, 0.36, -0.08, 0.61, 0.11 (mean 0.28). For GFTLNDYGIS | VIYSDGRRTFYGDSVK | RRMALVWIS [Rand], the assay gave ND, 0.46, ND, ND, 1.21, 1.35 (mean 1.01). The variant GFGLGEYGIS | VIYADGHRTAYSTSVK | GTIGGTFFN [En_Gibbs] showed 0.68, 1.35, 1.09, 1.25, 0.75, 1.11 (mean 1.04).

With GFDLDEYGIS | VIYADGKRTAYVDSVK | GETAGTFDV [En_Gen] the result was ND, 1.27, 1.27, ND, ND, ND (mean 1.27). With GFDLNEYGIS | VIYADGIRTAYADSVK | GNEAGTFDV [En_Gen] the result was ND, ND, ND, ND, ND, 1.88. With GFNLDEYGIS | VIYADGMRTVYADNVK | GQNVGFTVF [En_Gibbs] the result was ND, 2.09, ND, ND, ND, ND. With GKSVDEYGIS | VIYADGMRAEYQQSVK | GHTGGIFFV [En_Gibbs] the result was ND, ND, ND, ND, 3.38, ND. The variant GFNLDEYGIS | VIYADGARTAYANKVK | GGNWMISVN [En_Gibbs] showed ND, ND, ND, ND, ND, ND. The variant GFQLDEYGIS | VIYADGQRTAYSKNVK | GTIDFKRID [En_Gibbs] showed ND, ND, ND, ND, ND, ND.

With GFEIDEYGIS | VIYADGIRTSYNDNVK | GQLGTAFDL [En_Gibbs] the result was ND, ND, ND, ND, ND, ND. With GFDLEKYGIS | VIYADGKRVAYTDDVK | GVTGGMLMS [En_Gibbs] the result was ND, ND, ND, ND, ND, ND. The variant GFQLNEYGIS | VIYADGTRTAYADSVK | GAYDTVAVL [En_Gibbs] showed ND, ND, ND, ND, ND, ND. For GFDLDEYGVS | VIYADGIRCTYADAVK | GKHGGAFFV [En_Gibbs], the assay gave ND, ND, ND, ND, ND, ND. With GFTLNSYGIS | VIYSDGRRTFYDDSYK | HKAADPFMS [Ctrl] the result was ND, ND, ND, ND, ND, ND. With GFDLDEFGIS | VIYADGSRQVYQDNVK | GVGFGTFTD [En_Gibbs] the result was ND, ND, ND, ND, ND, ND.

For GYNIDEYGIS | VIYADGQRTAYQNSVK | GEQAGIMMY [En_Gibbs], the assay gave ND, ND, ND, ND, ND, ND. The variant GFNIQEYGIS | VIYADGRRTAYAEPVK | GEDGGTIDT [En_Gibbs] gave ND, ND, ND, ND, ND, ND.

For reference, 7 entries of the list once more:

GFTLNDYGIS | VIYSDGRRTFYGDSVK | RRMALVWIS [Rand]: ND, 0.46, ND, ND, 1.21, 1.35 (mean 1.01).
GFDLDEYGIS | VIYADGRRSAYHDSVK | GQLGGVSFV [En_Gibbs]: -0.48, -0.40, -0.49, -0.19, -0.53, -0.70 (mean -0.47).
GFQLDEYGIS | VIYADGQRTAYSKNVK | GTIDFKRID [En_Gibbs]: ND, ND, ND, ND, ND, ND.
GFDLNEYGIS | VIYADGVRTAYADSVK | GSNAGTFDT [En_Gen]: -0.08, -0.18, -0.33, -0.28, -0.51, 0.14 (mean -0.21).
GFEIDEYGIS | VIYADGIRTSYNDNVK | GQLGTAFDL [En_Gibbs]: ND, ND, ND, ND, ND, ND.
GFDLDEYGIS | VIYADGRRTAYADDVK | GENAGTFDI [En_Gen]: -0.27, -0.51, -0.28, -0.82, -0.56, -0.43 (mean -0.48).
GFGLGEYGIS | VIYADGHRTAYSTSVK | GTIGGTFFN [En_Gibbs]: 0.68, 1.35, 1.09, 1.25, 0.75, 1.11 (mean 1.04).